Results reported in patent publication US6284914A, “Highly water-soluble metalloproteinase inhibitors” (Fuji Yakuhin Kogyo Kabushiki Kaisha, priority 1995, dated 2001).

Target: T1, collagenase (MMP-1) (Homo sapiens, UniProt P03956)
T1 construct: endogenous in cells; host or cells: human fibroblast
T1 sequence (P03956 100-469): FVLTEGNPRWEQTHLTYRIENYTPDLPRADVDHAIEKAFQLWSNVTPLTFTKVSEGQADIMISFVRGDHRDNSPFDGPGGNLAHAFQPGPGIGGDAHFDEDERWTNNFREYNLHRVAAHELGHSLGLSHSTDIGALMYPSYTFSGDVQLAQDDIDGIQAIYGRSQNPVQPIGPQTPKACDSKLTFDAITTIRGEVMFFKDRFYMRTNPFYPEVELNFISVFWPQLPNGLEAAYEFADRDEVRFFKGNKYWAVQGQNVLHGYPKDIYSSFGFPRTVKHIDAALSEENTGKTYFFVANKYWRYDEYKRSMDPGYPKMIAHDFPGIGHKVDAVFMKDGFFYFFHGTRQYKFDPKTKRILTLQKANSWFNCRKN
Assay: Assay for Collagenase Inhibitory Activity (MMP-1)
Assay type: biochemical
Conditions: fluorescein-labeled bovine type I collagen substrate, 35° C., 2 hours, pH 7.5; read-out: Inhibitory activities for matrix metalloproeinases (MMPs), MMP-1, IC50 value
Experimental: Inhibitory activities of the compounds represented by the general formula (I) according to the invention for collagenase (metalloproteinase concerned with a tissue destruction) derived from human fibroblast were tested by the method of Y. Murawaki et al., [Journal of Hepatology, 18, p. 328-334 (1993)], and their inhibitory activities for stromelysin derived from human fibroblast were measured by the method of S. S. Twining et al., [Anal. Biochem., 143, p. 30 (1984)].
Inhibitory activities for collagenase (MMP-1) of the compounds of Examples and comparative compounds were measured by the method of Y. Murawaki et al., [Journal of Hepatology, 18, p. 328-334 (1993)]. The latent procollagenase was activated by incubating with mercury aminophenylacetate (2 mM) at 35° C. for 2 hours. The assay was done by using bovine type I collagen labeled with fluorescein as a substrate. The activated collagenase was added to the substrate solution (0.5 mg/ml) in Tris HCl buffer (50 mM, pH 7.5) containing sodium chloride (0.4 M) and calcium chloride (10 mM). The obtained solution was incubated at 35° C. for 2 hours. The enzyme digestion was stopped by the addition of o-phenanthroline (80 mM). […] The supernatant was taken, and its intensity of fluorescence was determined by the excitation wavelength (495 nm) and the measured wavelength (520 nm), and the inhibitory activity was obtained. […]

IC50: 4 nM
SMILES: CNC(=O)[C@H](Cc1ccc(OC)cc1)NC(=O)[C@@H](CC(=O)NO)CC(C)C [Comparative Compound 1, N-[4-(N-Hydroxyamino)-2(R)-isobutylsuccinyl]-O-methyl-L-tyrosine-N-methylamide, reference compound]
